Reference: patent US11680043B2, “Pharmaceutically acceptable salts of psilocin and uses thereof” (priority 2021, dated 2023)

Key:
GVS (hygroscopicity) = conditions: between 0 and 80% RH
[1] = Solubility of psilocin salts in saline
[2] = Saline, updated summary (Table 10)
[3] = pH of saturated solution in saline (Table 9)
[4] = saline, 25° C., 750 rpm, maximum anticipated concentration 10 mg/mL of free base (Table 9)

## Psilocin succinate [Psilocin succinate SUC Pattern 3]
GVS (hygroscopicity)
  GVS: mass change: Only 1.0% mass
[1]; [2]
  pH at 5 hrs: 6.4 and 6.5
[1]; Table 4 summary
  Solubility in Saline: >27 mg/mL
[1]; [3]
  pH at 5 hrs: 6.5 and 6.4

## Psilocin tartrate
[1]; [2]
  Appearance at 5 hrs: Clear solution
  pH at 5 hrs: 3.5
[1]; [3]
  pH at 5 hrs: 3.4
[1]; [4]
  Appearance at 5 hrs: Clear solution

## Psilocin tartrate [Psilocin tartrate TAR Pattern 1]
[1]; [2]
  pH at 5 hrs: 3.5
[1]; [3]
  pH at 5 hrs: 3.4
[1]; [4]
  Appearance at 5 hrs: Clear solution

Where “and” joins values, the source holds several entries; their conditions need not be identical. Identical values can stand only once.
